Results on one substance are retold here after paper PMC13012646.

The assay addresses human kallikrein 7 variant hK7-2.7 (human) (UniProt P49862).

With “bovine pancreatic trypsin inhibitor (from UniProt P00974 36-93) (natural protein)”, the inhibition of Aβ8 FRET reporter cleavage (5 nM protease, 200 nM substrate, 37°C) is above 30 µM.
